In the assay the target is peroxidase (Coprinopsis cinerea, UniProt P28314). Briefly: Effects of inhibitors, metal ions and metal chelating agents on peroxidase activity. It counts as biochemical, Coprinus macrorhizus K-1330. As to conditions: additive 1 mM; no addition = 100.

Sequences of proteins named here, by UniProt entry; tags and fusion partners are left off. Residues count along the entry.
UniProt P28314, 21-363 limits assumed: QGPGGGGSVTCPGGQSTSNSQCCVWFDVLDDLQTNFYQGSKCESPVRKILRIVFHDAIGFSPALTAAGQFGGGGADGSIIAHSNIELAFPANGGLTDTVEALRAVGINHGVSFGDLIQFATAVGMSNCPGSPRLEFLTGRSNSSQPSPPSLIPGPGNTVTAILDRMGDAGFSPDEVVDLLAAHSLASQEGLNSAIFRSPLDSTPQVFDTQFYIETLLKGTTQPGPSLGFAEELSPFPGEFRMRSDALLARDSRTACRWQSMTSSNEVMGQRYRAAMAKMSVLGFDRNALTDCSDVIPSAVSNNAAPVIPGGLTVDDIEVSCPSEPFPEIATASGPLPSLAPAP

For the compound `[N-]=[N+]=[N-]` [Sodium azide], the Relative activity is on record as 52%. In the case of Sodium sulfide, the Relative activity is listed as 82%.

The record behind these values is patent publication US4698306A, “Process for producing peroxidase” (Takara Shuzo Co., Ltd., priority 1984, dated 1987).
